Our source for the inhibition values is PubChem BioAssay AID798 (PCMD, 2007).

Protein sequences, listed by entry. Tags and fused reporters are not part of them. Residues count along the entry.
UniProt P03951, 19-387 limits assumed: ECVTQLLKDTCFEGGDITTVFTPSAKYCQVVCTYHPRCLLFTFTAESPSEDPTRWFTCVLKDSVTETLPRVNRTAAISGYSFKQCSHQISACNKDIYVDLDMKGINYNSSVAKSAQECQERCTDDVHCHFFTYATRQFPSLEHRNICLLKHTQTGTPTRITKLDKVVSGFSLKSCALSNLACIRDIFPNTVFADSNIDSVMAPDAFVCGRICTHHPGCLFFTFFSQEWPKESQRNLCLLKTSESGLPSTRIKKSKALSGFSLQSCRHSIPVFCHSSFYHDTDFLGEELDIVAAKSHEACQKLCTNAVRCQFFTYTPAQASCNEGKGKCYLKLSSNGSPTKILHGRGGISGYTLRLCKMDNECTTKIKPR
UniProt P03951, 388-625 limits assumed: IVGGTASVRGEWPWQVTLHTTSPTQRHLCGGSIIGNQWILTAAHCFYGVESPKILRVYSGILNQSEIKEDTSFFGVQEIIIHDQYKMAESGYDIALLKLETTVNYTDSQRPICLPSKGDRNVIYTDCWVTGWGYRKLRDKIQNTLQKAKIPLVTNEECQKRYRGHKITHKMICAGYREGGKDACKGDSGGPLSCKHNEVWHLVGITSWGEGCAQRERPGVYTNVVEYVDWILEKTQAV

The entries are a selection whose mix differs from that of the whole data set. Some salts or complexes appear as unconnected parts, following the source record. Calls of active or inactive are those of the source.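 The calls were made as follows: active = inhibition of at least 40%; inactive = inhibition below 40%.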

In this assay the target is Coagulation factor XI (Homo sapiens) (UniProt P03951). As to the kind of experiment: factor XIa enzyme inhibition, large library – biochemical, 1536-well, primary screen (AID 798).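 Also: fluorescence of freed AMC excited at 355 nm; 0% = enzyme without compound and 100% = no enzyme blank.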 To be noted: purified FXIa, Boc-Glu-Ala-Arg-AMC fluorogenic substrate; at 5 µM; hits give high values.
Broadly, the inhibition is the change of the read-out against control, counted positive when it falls. As for `CP(=O)(Oc1ccccc1)OC(c1ccccc1)C(F)(F)F` (stereo unspecified), the inhibition was inactive: 1.13%. `CP(=O)(Nc1ccc(SC(F)(F)F)cc1)Oc1ccc(Cl)cc1` (stereo unspecified): the inhibition was inactive: 3.41%. Then `Cc1cccc(C)c1OP(C)(=O)Nc1ccc(SC(F)(F)F)cc1` (stereo unspecified), with inactive: 0.41%; and `Cc1cc(C)cc(OP(C)(=O)Nc2ccc(SC(F)(F)F)cc2)c1` (stereo unspecified), with inactive: 17.3%; and `CCc1ccc(OP(C)(=O)N2CCN(c3ccc([N+](=O)[O-])cc3)CC2)cc1` (stereo unspecified), with inactive: -2.24%.

As for `CP(=O)(NC(=O)Nc1ccccc1)Oc1ccccc1` (stereo unspecified), the inhibition was inactive: 2.64%. On to `CCOP(C)(=S)SCC(=O)NC(C)C(=O)O` (stereo unspecified), for which the inhibition is inactive: 3.52%. `CCOC(=O)c1ccc(NP(C)(=O)Oc2ccc(OC)cc2)cc1` (stereo unspecified): the inhibition was inactive: 7.21%. Consider `CP(=O)(Nc1ccccn1)Oc1ccc(Cl)cc1` (stereo unspecified), for which the inhibition is inactive: -4.6%.

For the compound `CP(=S)(Nn1cnnc1)Oc1ccccc1` (stereo unspecified), the inhibition is inactive: 1.56%. For the compound `COc1ccccc1OP(C)(=O)Nc1ccccc1` (stereo unspecified), the inhibition was inactive: -7.5%.

For the compound `CP(=O)(Nc1ccccc1Br)Oc1ccccc1` (stereo unspecified), the inhibition was inactive: 3.47%. In the case of `Cc1cccc(C)c1OP(C)(N)=O` (stereo unspecified), the inhibition was inactive: -3.32%. Consider `CC(C)(C)c1ccc(OP(C)(=O)Nc2ccc(SC(F)(F)F)cc2)cc1` (stereo unspecified), for which the inhibition was inactive: 8.85%. `O=[N+]([O-])c1ccc2c(c1)C=Nc1ccccc1O2`: the inhibition is inactive: -2.45%. For `CCOC(=O)c1ccc(NP(C)(=O)Oc2ccccc2)cc1` (stereo unspecified) the value was inactive: -35.9%; for `Cc1ccc(NP(C)(=O)Oc2ccccc2)c(C)c1` (stereo unspecified), inactive: -5.56%. As to `COc1ccccc1OP(C)(=O)Nc1ccc(C)cc1` (stereo unspecified), the inhibition was inactive: 12.2%. Regarding `COc1ccc(OP(C)(=O)Nc2cccc(F)c2)cc1` (stereo unspecified), the inhibition was inactive: 5.58%. Then `COc1ccccc1OP(C)(=O)Nc1cc(Cl)ccc1C` (stereo unspecified), with inactive: -4.7%; and `Cc1cc(C)cc(OP(C)(N)=O)c1` (stereo unspecified), with inactive: 2.93%; and `CCN(CC)CCCOC(=O)C(O)(c1ccccc1)c1ccccc1`, with inactive: 0.86%.

For the compound `COc1ccccc1OP(C)(=O)Nc1cccc(Br)c1` (stereo unspecified), the inhibition is inactive: 1.24%. Turning to `Cc1cc(C)cc(OP(C)(=O)Nc2ccc(C)cc2C)c1` (stereo unspecified), the inhibition was inactive: -8.64%. With `CCOC(=O)c1ccc(NP(C)(=O)Oc2cc(C)cc(C)c2)cc1` (stereo unspecified), the inhibition was inactive: -4.77%.

In the case of `CP(=O)(Nc1cccc(Br)c1)Oc1ccccc1` (stereo unspecified), the inhibition was inactive: -0.93%. In the case of `Cc1cc(C)cc(OP(C)(=O)Nc2ccccn2)c1` (stereo unspecified), the inhibition is inactive: -8.34%.

For the compound `Cc1ccc(C)c(NP(C)(=O)Oc2ccccc2)c1` (stereo unspecified), the inhibition is inactive: 22.4%.

Regarding `O=C(O)c1cccc(Nc2c([N+](=O)[O-])cc([N+](=O)[O-])cc2[N+](=O)[O-])c1`, the inhibition was inactive: -4.16%. For `CC1=NCCc2c1[nH]c1ccccc21.O=[N+]([O-])c1cc([N+](=O)[O-])c(O)c([N+](=O)[O-])c1` the value was inactive: -5.97%; for `CCOC(=O)C(CC)C1=NC(C)(C)Cc2ccccc21.O=[N+]([O-])c1cc([N+](=O)[O-])c(O)c([N+](=O)[O-])c1` (stereo unspecified), inactive: 1.04%; for `O=[N+]([O-])c1cc([N+](=O)[O-])c(Nc2nnnn2CCO)c([N+](=O)[O-])c1`, inactive: 0.56%.

On to `CN1CCCCC1COC(=O)C1(O)c2ccccc2CCc2ccccc21` (stereo unspecified), for which the inhibition was inactive: 8.94%.

Regarding `COc1ccccc1OP(C)(=O)Nc1c(C)cccc1C` (stereo unspecified), the inhibition was inactive: -13.9%.

As to `CP(=O)(Nc1ccc(SC(F)(F)F)cc1)Oc1ccccc1` (stereo unspecified), the inhibition is inactive: -6.99%.

As for `CCCOc1ccc(NP(C)(=O)Oc2ccc(Cl)cc2)cc1` (stereo unspecified), the inhibition is inactive: 2.45%. Consider `O=[N+]([O-])c1cc([N+](=O)[O-])c(-n2nnc3ccccc32)c([N+](=O)[O-])c1`, for which the inhibition is inactive: 1.68%. Take `Cc1nc2ccc3ccccc3c2s1.O=[N+]([O-])c1cc([N+](=O)[O-])c(O)c([N+](=O)[O-])c1`: the inhibition is inactive: 0.91%. For `CP(=O)(Nc1ccc(SC(F)(F)F)cc1)Oc1ccc(F)cc1` (stereo unspecified), the inhibition is inactive: 1.01%. Regarding `CCOP(C)(=S)SCC(=O)NC(C)(CC)C(=O)O` (stereo unspecified), the inhibition is inactive: -10.8%.

On to `CP(=O)(Nc1ccc2c(c1)OCCO2)Oc1ccccc1` (stereo unspecified), for which the inhibition was inactive: 16.3%. In the case of `Cc1ccccc1NP(C)(=O)Nc1ccccc1C`, the inhibition is inactive: 2.78%.

With `COc1ccc(OP(C)(=O)Nc2cccc(Br)c2)cc1` (stereo unspecified), the inhibition is inactive: 0.32%. With `COc1ccc(NP(C)(=O)Oc2ccccc2OC)cc1` (stereo unspecified), the inhibition is inactive: -4.9%.

Turning to `CN(C)CCOC(=O)C(O)(c1ccccc1)C1CCCCC1` (stereo unspecified), the inhibition was inactive: 4.6%. As to `O=[N+]([O-])c1cc([N+](=O)[O-])c(NCC2CCS(=O)(=O)C2)c([N+](=O)[O-])c1` (stereo unspecified), the inhibition is inactive: -1.4%. As to `Cc1cc(-c2cccc3ccccc23)c(C)cn1.O=[N+]([O-])c1cc([N+](=O)[O-])c(O)c([N+](=O)[O-])c1`, the inhibition is inactive: 4.69%. As for `O=[N+]([O-])c1ccc(OP2(=O)COCCO2)cc1` (stereo unspecified), the inhibition was inactive: -3.45%.

`COc1ccc(OP(C)(=O)Nc2ccc(SC(F)(F)F)cc2)cc1` (stereo unspecified): the inhibition is inactive: -4.12%.

With `CCOC(=O)c1ccc(NP(C)(=O)Oc2ccc(F)cc2)cc1` (stereo unspecified), the inhibition is inactive: -6.47%.

Regarding `CCN(CC)CCCOC(=O)C(O)(c1ccccc1)C1CCCCC1` (stereo unspecified), the inhibition was inactive: -5.46%.

For `CCCCCOc1ccc(NP(C)(=O)Oc2ccc(Cl)cc2Cl)cc1` (stereo unspecified), the inhibition is inactive: 3.22%. `CP(=O)(Nc1ccccc1)Oc1ccc(F)cc1` (stereo unspecified): the inhibition was inactive: 2.47%.

`CC(C)c1ccc(OP(C)(=O)Nc2ccc(SC(F)(F)F)cc2)cc1` (stereo unspecified): the inhibition is inactive: 4.97%. As to `CP(=O)(Nc1ccccc1F)Oc1ccccc1` (stereo unspecified), the inhibition is inactive: -8.9%. `O=C(OCCN1CCN(CCOCc2ccccc2)CC1)C(O)(c1ccccc1)c1ccccc1`: the inhibition is inactive: 7.02%. As for `O=C(OC1CN2CCC1CC2)c1ccc([N+](=O)[O-])cc1` (stereo unspecified), the inhibition is inactive: 2.34%.

With `COc1ccc2c(c1O)-c1c(O)c(OC)cc3c1[C@H](C2)[N+](C)(C)CC3.O=[N+]([O-])c1cc([N+](=O)[O-])c([O-])c([N+](=O)[O-])c1[O-]`, the inhibition is inactive: 4.92%. `COc1ccccc1OP(C)(=O)Nc1ccc(Br)cc1` (stereo unspecified): the inhibition is inactive: -2.9%. As for `CN(C)CCOC(=O)C(O)(c1ccccc1)C1CCCC1` (stereo unspecified), the inhibition was inactive: -6.35%. Then `COc1ccc(OP(C)(=O)Nc2ccccn2)cc1` (stereo unspecified), with inactive: 14.7%.
